The source of these data is PubChem BioAssay AID2066 (NMMLSC, 2009).

SMILES strings stand for the structures. The list shows a part of the results, in another mix than the full data. The source made the active and inactive calls.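 How the source made its calls: active means GFP response relative to DMSO above a set limit, near screen average plus 3 SD (cut at about 150% in these data); inconclusive means fewer than 70 cells counted for the yeast strain; inactive means the rest.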

This assay can be described thus: yeast AGP1-GFP level changes, GLN3 branch – cell-based, multiplex flow cytometry, S. cerevisiae, MLPCN library, primary screen (AID 2066).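 Further: median GFP channel fluorescence of the gated AGP1 strain per well.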 The following applies: 3 h, at 10 µM, stronger effect = higher value, GFP as percent of DMSO wells.
On to `CCC(=O)N(c1ccccc1)C1(COC)CCN(CCc2cccs2)CC1`, for which the GFP response vs DMSO is inactive: 102%.

In the case of `CCC(=O)N(c1ccccc1)C1(COC)CCN(CCn2nnn(CC)c2=O)CC1`, the GFP response vs DMSO was inactive: 99.2%.
